Earlier results as cited in patent US20220071988A1, “SUSTAINED RELEASE BUPRENORPHINE MICROSPHERES (SRBM) AND METHODS OF USE THEREOF” (BioDelivery Sciences International, Inc., priority 2016, published 2022).

Buprenorphine HCl
solubility in alcohol (alcohol): soluble | solubility in cyclohexane (cyclohexane): practically insoluble | solubility in methanol (methanol): freely soluble | solubility in water (water): sparingly soluble
